Measured values taken from ChEMBL document CHEMBL4118265, “A cascade synthesis, in vitro cholinesterases inhibitory activity and docking studies of novel Tacrine-pyranopyrazole derivatives” (Bioorg Med Chem Lett, 2018).

By UniProt entry, the sequences of proteins in these tests, tags left out.
UniProt P81908, whole entry: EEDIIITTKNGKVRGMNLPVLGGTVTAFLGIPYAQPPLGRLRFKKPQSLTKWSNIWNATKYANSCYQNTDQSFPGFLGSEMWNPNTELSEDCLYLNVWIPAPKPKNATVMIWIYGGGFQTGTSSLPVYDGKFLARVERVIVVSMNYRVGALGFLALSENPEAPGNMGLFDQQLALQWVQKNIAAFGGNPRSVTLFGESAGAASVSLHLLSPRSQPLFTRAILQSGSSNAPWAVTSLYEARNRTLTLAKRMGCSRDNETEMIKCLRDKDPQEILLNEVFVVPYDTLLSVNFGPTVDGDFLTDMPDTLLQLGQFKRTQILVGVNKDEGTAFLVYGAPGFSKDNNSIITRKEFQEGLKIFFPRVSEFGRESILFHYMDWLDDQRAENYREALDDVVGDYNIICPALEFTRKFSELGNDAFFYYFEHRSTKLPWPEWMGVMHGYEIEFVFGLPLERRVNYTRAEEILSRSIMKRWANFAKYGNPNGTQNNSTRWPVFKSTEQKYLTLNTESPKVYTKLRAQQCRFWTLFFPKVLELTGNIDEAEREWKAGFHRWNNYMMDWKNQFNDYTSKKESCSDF

Target: Cholinesterase (Equus caballus) (UniProt P81908)
Assay: Inhibition of horse serum BChE at 12.5 ug using butyrylthiocholine chloride as substrate preincubated for 15 mins followed by substrate addition measured every 5 mins for 15 mins by spectrophotometric method relative to control
Method in brief: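 Ellman colorimetric assay. Compound in methanol (10 µl) was mixed with 150 µl 100 mM sodium phosphate pH 8.0 and BChE (6.85 x10-3 U) and held 15 min at 25 °C. DTNB (0.5 mM) was added, then butyrylthiocholine chloride (0.2 mM) to start the reaction. A412 read every 5 min for 15 min, in triplicate. Percent inhibition = (E−S)/E×100 against a methanol blank.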

COc1ccc2c3c1O[C@H]1C[C@@H](O)C=C[C@@]31CCN(C)C2
inhibition: 85.7%
